Earlier results, collected in paper PMC6008299, “Impact of race on dose selection of molecular-targeted agents in early-phase oncology trials” (British Journal of Cancer, 2018).
Like-named read-outs stand apart in the source and are kept apart here.

Columns and labels:
[1] = at the MTD, ref not given, cited from earlier work
[2] = Asian, at the MTD, Day 1; ref not given; cited from earlier work

CN(C)C/C=C/C(=O)Nc1cc2c(Nc3ccc(F)c(Cl)c3)ncnc2cc1O[C@H]1CCOC1 [Afatinib]
Cmax ([1]; Day 1): 27.0 ng/mL
Cmax ([1]; Day 28): 36.6 ng/mL
Cmax [2]: 44.4 ng/mL
